Results on one compound are retold here after ChEMBL document CHEMBL1127769, “Synthesis of new pyrazolo[4,3-e]1,2,4-triazolo[1,5-c] pyrimidine and 1,2,3-triazolo[4,5-e]1,2,4-triazolo[1,5-c] pyrimidine displaying potent and selective activity as A2a adenosine receptor antagonists” (Bioorg Med Chem Lett, 1994).

Chains of the proteins cited; added tags and fusions are not shown.
UniProt P25099, whole entry: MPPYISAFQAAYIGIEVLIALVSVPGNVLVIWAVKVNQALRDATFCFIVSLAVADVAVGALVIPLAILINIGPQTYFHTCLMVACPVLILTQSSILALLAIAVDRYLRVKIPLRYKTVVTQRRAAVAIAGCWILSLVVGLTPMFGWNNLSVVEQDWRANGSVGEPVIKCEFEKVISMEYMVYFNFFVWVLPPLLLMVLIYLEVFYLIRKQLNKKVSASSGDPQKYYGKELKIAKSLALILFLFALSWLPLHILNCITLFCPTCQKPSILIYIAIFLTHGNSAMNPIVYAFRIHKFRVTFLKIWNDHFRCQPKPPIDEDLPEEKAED

Molecules are shown by their SMILES.

This experiment concerns the target Adenosine receptor A1 (Rattus norvegicus, UniProt P25099). Nature of the experiment: biochemical.

In general, Ki refers to a measure of affinity in units of concentration, obtained from inhibition or displacement. Higher therefore signals weaker binding. Consider `Nc1nc2ccc(Cl)cc2c2nc(-c3ccco3)nn12` [CGS-15943], for which the Ki was determined as 6.4 nM.
